Biological target: partially purified human EGF (epidermal growth factor) receptor tyrosine kinase (Homo sapiens, UniProt P00533)
Conditions: read-out: Tyrosine kinase inhibitory activity (IC50, μ); Table-2 continued; partially purified EGF receptor from A431 cells; 4) hydrochloride

Sequences of proteins named here, by UniProt entry; tags and fusion partners are left off.
UniProt P00533, whole entry, looked up: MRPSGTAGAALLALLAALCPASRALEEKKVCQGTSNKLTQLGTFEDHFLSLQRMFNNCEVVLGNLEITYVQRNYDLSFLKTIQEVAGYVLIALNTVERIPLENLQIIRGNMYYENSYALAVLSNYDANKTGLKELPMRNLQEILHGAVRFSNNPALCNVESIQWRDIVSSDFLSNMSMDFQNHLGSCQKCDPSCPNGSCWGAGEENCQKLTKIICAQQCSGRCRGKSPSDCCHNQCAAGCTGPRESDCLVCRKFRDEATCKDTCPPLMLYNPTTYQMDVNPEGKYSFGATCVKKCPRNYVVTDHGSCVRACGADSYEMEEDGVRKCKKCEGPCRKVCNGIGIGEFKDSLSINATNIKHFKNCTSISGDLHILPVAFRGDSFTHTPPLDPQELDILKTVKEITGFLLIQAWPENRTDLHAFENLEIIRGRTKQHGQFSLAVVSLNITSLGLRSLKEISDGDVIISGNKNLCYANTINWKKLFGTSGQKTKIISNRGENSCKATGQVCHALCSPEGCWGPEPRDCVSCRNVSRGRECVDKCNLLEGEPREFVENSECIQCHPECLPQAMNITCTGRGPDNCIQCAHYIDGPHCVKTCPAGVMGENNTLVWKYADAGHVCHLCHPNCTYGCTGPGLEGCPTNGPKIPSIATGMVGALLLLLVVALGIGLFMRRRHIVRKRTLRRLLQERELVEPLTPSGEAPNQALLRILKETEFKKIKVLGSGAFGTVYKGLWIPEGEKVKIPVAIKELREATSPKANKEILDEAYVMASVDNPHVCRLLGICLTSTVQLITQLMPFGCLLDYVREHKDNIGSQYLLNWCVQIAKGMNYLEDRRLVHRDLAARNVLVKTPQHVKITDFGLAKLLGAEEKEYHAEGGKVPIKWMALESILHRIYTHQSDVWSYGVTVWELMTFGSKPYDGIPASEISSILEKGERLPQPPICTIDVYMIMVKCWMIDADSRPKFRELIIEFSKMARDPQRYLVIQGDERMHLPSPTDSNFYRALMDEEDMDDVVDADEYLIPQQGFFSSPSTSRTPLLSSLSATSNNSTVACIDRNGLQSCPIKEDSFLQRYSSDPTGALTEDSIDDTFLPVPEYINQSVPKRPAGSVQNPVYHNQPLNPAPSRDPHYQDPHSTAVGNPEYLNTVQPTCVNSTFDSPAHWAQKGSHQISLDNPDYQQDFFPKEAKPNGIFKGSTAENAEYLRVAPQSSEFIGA

`COc1ccc(C(=O)C#CC(C)(C)NC(=O)OCc2ccc[n+](C)c2)cc1OC` [compound 650] gave an IC50 of 430 nM.
